{"source": "patent US20240002441", "proteins": {"B1": {"name": "Recombinant human neprilysin (protein)", "chain": "YDDGICKSSDCIKSAARLIQNMDATTEPCTDFFKYACGGWLKRNVIPETSSRYGNFDILRDELEVVLKDVLQEPKTEDIVAVQKAKALYRSCINESAIDSRGGEPLLKLLPDIYGWPVATENWEQKYGASWTAEKAIAQLNSKYGKKVLINLFVGTDDKNSVNHVIHIDQPRLGLPSRDYYECTGIYKEACTAYVDFMISVARLIRQEERLPIDENQLALEMNKVMELEKEIANATAKPEDRNDPMLLYNKMTLAQIQNNFSLEINGKPFSWLNFTNEIMSTVNISITNEEDVVVYAPEYLTKLKPILTKYSARDLQNLMSWRFIMDLVSSLSRTYKESRNAFRKALYGTTSETATWRRCANYVNGNMENAVGRLYVEAAFAGESKHVVEDLIAQIREVFIQTLDDLTWMDAETKKRAEEKALAIKERIGYPDDIVSNDNKLNNEYLELNYKEDEYFENIIQNLKFSQSKQLKKLREKVDKDEWISGAAVVNAFYSSGRNQIVFPAGILQPPFFSAQQSNSLNYGGIGMVIGHEITHGFDDNGRNFNKDGDLVDWWTQQSASNFKEQSQCMVYQYGNFSWDLAGGQHLNGINTLGENIADNGGLGQAYRAYQNYIKKNGEEKLLPGLDLNHKQLFFLNFAQVWCGTYRPEYAVNSIKTDVHSPGNFRIIGTLQNSAEFSEAFHCRKNSYMNPEKKCRVW"}}, "key": {"[1]": {"biological_target": "Synthetic amyloid-beta peptide (Aβ42), P05067"}, "[2]": {"biological_target": "T1, SEQ ID NO: 2 (H2N-…-NH2)", "T1 chain": "SLFELGKMIX"}, "[3]": {"biological_target": "Synthetic amyloid-beta peptide 1-40, P05067"}}, "data": [{"protein": "B1", "values": [{"measurement": "formation of Aβ1-12, Aβ1-16 and Aβ1-21 from Aβ42 by NEP over 24 h (LCMS)", "setting": "[1]", "result": "Levels of all three cleavage products increased over 24 h under each treatment"}, {"measurement": "KM of rhNEP in the presence of SEQ ID NO:2 (QFS cleavage)", "setting": "[2]", "result": "8.7 ± 0.8", "unit": "µM"}, {"measurement": "vmax of rhNEP in the presence of SEQ ID NO:2 (QFS cleavage)", "setting": "[2]", "result": "0.035±0.002 µmol substrate cleaved/min"}, {"measurement": "amount of Aβ40 remaining after 4 h of cleavage by NEP alone (LCMS peak area) (arbitrary units (peak area))", "setting": "[3]", "result": "3.2e+06"}]}]}
